The target in the assay is COX1 (h) (Homo sapiens, UniProt P23219). As to the kind of experiment: Pharmacology profiling: COX1 (h). Format: biochemical. Conditions: read-out: COX1 (h): % inhibition @10 µM.

Amino acid sequences for entries named in this document (tags omitted). Residues count along the entry.
UniProt P23219, 24-599: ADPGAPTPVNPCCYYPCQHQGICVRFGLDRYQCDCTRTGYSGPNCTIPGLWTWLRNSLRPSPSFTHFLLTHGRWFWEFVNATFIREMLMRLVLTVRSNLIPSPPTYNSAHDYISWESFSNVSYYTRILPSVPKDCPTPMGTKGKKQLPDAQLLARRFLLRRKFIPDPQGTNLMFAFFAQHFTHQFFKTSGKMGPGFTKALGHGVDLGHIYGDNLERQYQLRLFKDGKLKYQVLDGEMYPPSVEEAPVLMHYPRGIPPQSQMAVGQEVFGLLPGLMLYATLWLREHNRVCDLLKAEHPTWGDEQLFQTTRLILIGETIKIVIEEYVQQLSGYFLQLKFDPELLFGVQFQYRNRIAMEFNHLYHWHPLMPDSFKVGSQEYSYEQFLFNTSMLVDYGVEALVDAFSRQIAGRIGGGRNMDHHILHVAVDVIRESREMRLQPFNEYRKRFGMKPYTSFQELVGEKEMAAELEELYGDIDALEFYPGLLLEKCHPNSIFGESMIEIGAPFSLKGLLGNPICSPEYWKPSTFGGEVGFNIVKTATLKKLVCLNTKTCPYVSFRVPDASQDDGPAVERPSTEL

Structures are written as SMILES.

Consider `O=c1c(-c2ccc(O)cc2)coc2cc(O)cc(O)c12` [Genistein, 5,7-DIHYDROXY-3-(4-HYDROXYPHENYL)-4-BENZOPYRONE], for which the inhibition at 10 µM came to 70.8%.

In general, inhibition refers to the drop in the measured response relative to a control, in per cent.

The record behind these values is paper PMC11220827 (Frontiers in Pharmacology, 2024).
